Tests used:
IDO1 [1] = target: T1, IDO1 (Homo sapiens, UniProt P14902); experiment: IDO1 enzymatic assay; assay type: biochemical; conditions: read-out: Enzyme IC50 IDO1
Method in brief: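 Assays were run in 50 mM potassium phosphate pH 7.5 with 0.1% BSA for 1.5 hours at 24 °C. Each contained 50 nM E. coli-purified, N-terminally His-tagged IDO1, compound, 1.3 mM D-tryptophan, 5 mM L-ascorbic acid, methylene blue and 0.4 mg/mL catalase. IC50 was calculated from remaining enzyme activity across a rising compound series, with activity taken as the slope of N'-formylkynurenine formation read continuously at 321 nm for 1 hour.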

By UniProt entry, the sequences of proteins in these tests, tags left out.
UniProt P14902, whole entry: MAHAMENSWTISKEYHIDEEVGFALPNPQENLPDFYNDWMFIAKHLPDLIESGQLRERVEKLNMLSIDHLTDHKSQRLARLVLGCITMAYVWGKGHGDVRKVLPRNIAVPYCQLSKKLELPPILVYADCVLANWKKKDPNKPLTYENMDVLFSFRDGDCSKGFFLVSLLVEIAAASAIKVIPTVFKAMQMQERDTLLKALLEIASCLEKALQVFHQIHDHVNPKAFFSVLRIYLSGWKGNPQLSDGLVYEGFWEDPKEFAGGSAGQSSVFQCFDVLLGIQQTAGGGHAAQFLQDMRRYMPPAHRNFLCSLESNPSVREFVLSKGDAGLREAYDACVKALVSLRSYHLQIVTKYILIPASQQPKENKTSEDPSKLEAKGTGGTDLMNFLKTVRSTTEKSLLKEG
UniProt P48775, whole entry: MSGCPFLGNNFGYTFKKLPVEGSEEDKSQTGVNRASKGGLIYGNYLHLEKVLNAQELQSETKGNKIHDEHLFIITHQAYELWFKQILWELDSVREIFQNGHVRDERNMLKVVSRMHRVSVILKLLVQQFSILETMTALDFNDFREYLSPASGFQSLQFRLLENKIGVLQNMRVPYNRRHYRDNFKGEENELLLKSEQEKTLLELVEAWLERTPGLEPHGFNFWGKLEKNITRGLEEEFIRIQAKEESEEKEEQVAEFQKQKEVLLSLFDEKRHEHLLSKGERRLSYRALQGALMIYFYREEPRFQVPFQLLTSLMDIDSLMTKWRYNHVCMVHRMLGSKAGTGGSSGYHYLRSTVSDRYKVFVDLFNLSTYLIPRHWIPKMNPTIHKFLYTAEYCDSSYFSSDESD

TDO = TDO (Homo sapiens, UniProt P48775); experiment: TDO enzymatic assay; assay type: biochemical; conditions: read-out: Enzyme IC50 TDO
Method in brief: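 With 0.5 mM L-tryptophan (Km concentration), 100 nM of E. coli-purified, C-terminally His-tagged recombinant TDO was incubated for 1.5 hours under the IDO1 enzymatic conditions: ascorbic acid, methylene blue, catalase, and potassium phosphate pH 7.5 with BSA. The slope of N'-formylkynurenine absorbance, monitored continuously at 321 nm, served as activity. Remaining activity at increasing compound concentrations was used to calculate IC50.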

IDO1 [2] = target: T1, IDO1; experiment: Hela cell-based IDO1 assay; conditions: read-out: Cell-Based EC50 Hela IDO1; Hela cells
Method in brief: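 Kynurenine was measured at 480 nm in trichloroacetic acid-deproteinised supernatant after adding 2% 4-(dimethylamino)benzaldehyde. This supernatant came from HeLa cells seeded at 8000 per well in 96-well plates in phenol red-free DMEM with 10% FBS and, from 4 hours after seeding, exposed for 48 hours at 37 °C, 5% CO2 to DMSO-diluted compound dilutions, IFN-γ (final 100 ng/mL) and 0.4 mM L-Trp. The resulting data were fitted with a four-parameter logistic model in XLfit. Potency was taken from those fits.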

[3] = target: cellular TDO2 in HEK293-TDO2 cells (Homo sapiens, UniProt P48775); experiment: 293-TDO2 cell-based assay (Kyn colorimetric); conditions: read-out: Cell-Based EC50 293-TDO2, 48 hours of incubation
Description: The inhibitory activity of TDO2 inhibitors is determined by using a colorimetric reaction to measure Kyn generated from L-Trp (L-Tryptophon) oxidation by cellular TDO2 in HEK293-TDO2 cells stably transfected with a plasmid expression of Tryptophan 2,3-dioxygenase (for short, 293-TDO2).
HEK293 cells were obtained from the American Type Culture Collection and 293-TDO2 were recovered in 10% FBS-containing phenol red-free DMEM medium. Cells were plated onto a 96-well plate (100 μl/well) at 10000 cells per well and kept at 37° C. in a humidified incubator supplied with 5% CO2. 4 hours later, Compounds at different concentrations diluted in dimethylsulfoxide (DMSO) were added to plate. Cells were kept at 37° C. in a humidified incubator supplied with 5% CO2. After 48 hours of incubation, 100 μl supernatant from each well was removed to a new plate. The protein in the medium was precipitated with the addition of 8 μl 6N trichloroacetic acid. The plate was incubated at 60° C. for 30 minutes and then centrifugation at 2500 rpm for 10 minutes to remove sediments. 80 μl supernatants were carefully removed to a new clean plate and added with an equal volume of 2% 4-(Dimethylamino) benzaldehyde (D2004, sigma) dissolved in glacial acetic acid. The absorbance at 480 nm wavelength derived from Kyn was measured using a PHERAstar FS plate reader (BMG LABTECH). […]

Row | IC50 (IDO1 [1]) | IC50 (TDO) | EC50 (IDO1 [2]) | EC50 [3] | SMILES
1 | 0.019 µM | 13 µM | 0.278 µM | > 10 µM | O=Cc1ccc(C2CCC(C(O)c3c(C4CC4)ccc4cncn34)CC2)cc1 (single isomer, unassigned) [D123a]
2 | > 10 µM |  | 9.5 µM | > 10 µM | O=Cc1ccc(C2CCC(C(O)c3c(C4CC4)ccc4cncn34)CC2)cc1 (single isomer, unassigned) [D123b]

Source: patent publication US10882856B2 (BeiGene, Ltd., priority 2017, dated 2021)
